## AlphaSeq binding of Ab-14 heavy chain variants to a spike HR2 peptide

Source: Engelhart et al. 2022 (doi:10.1038/s41597-022-01779-4), MIT Lincoln Laboratory and A-Alpha Bio; data file from the FLAb repository.

Target peptide (SARS-CoV-2 spike, HR2 region): PDVDLGDISGINAS

The variants keep the light chain, the linker and the frameworks of Ab-14 (scFv order VH, three GGGGS repeats, VL).
VH: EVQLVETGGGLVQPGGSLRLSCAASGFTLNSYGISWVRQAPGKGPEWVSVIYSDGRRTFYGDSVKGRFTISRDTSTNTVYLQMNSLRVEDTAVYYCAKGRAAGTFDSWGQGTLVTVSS
VL: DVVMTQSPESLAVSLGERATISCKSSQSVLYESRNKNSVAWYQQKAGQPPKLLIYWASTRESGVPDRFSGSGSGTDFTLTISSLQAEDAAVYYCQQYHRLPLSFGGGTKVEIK

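The starting antibody came from a phage panning campaign against this peptide. Variants in AAYL49 differ from the parent at up to three CDR positions; double and triple changes were sampled at random. Affinity was read by AlphaSeq, a pooled yeast mating assay with surface-displayed partners. Pairs that bind mate more often; barcode pairs of the diploids are counted by sequencing. Each replicate has its own calibration line, from reference interactions of the BCL2 family. Mating was done three times.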

The parent's heavy chain CDRs are GFTLNSYGIS, VIYSDGRRTFYGDSVK, GRAAGTFDS; each variant's own CDRs replace them letter for letter.
Affinities are written as log10 Kd with Kd in nM; a lower number is a better binder.
A mean of the replicates is given; it leaves out those without a signal.
"nd" marks a missing value. The strain was present, yet no cells mated with the target were sequenced in that replicate, which points to weak or no binding.
In this assay the parent's reference entry averaged 0.65; its copy inside this library read 4.11 (one replicate of three).
Background: pairings of library AAYL49 with three empty control strains gave a value in 15% of cases (median 4.06, 5th percentile 2.83). Values in that range, when seen in few replicates, are hard to tell from nonspecific mating. The control count says in how many pairings with the empty strains this scFv gave a signal, with their mean in brackets.

CDR-H1,CDR-H2,CDR-H3,log10 Kd (nM) by replicate,"log10 Kd (nM), mean",empty controls
GFTLNSYGIM,VIYSDGRRTFYGDSVK,GRAAGTQYS,nd / nd / nd,nd,1 of 9 (4.03)
GFTLDSYDIS,VIYSDGRRTFYGDSVK,GRAADTFDS,5.05 / nd / nd,5.05,0 of 9
GFTLNSYGIS,VIYSDGRRTIYGDSVK,GRAATTYDS,5.38 / nd / 4.78,5.08,3 of 9 (3.30)
GFSLNSYGIS,VIYSDGRRTFYGSSCK,GRAAGTFDS,1.65 / 1.72 / 2.29,1.89,2 of 9 (2.79)
GFTLNSSGIS,VIYSDQRRAFYGDSVK,GRAAGTFDS,nd / nd / nd,nd,0 of 9
NFTLNSYGIS,VIYSDGRRTFYGDSVK,GTAAGTTDS,1.90 / 1.45 / 1.61,1.66,3 of 9 (3.78)
GFTQNSYGIS,VIHSDGRRTFYGDSVK,GSAAGTFDS,4.46 / 4.57 / 4.81,4.61,5 of 9 (4.40)
GFTLNSYGIS,VIYSGGRRTFYGDSVK,GRAAGTFDS,3.94 / nd / nd,3.94,0 of 9
GFCLNSYGIS,VIYSDGRRTFYGSSVY,GRAAGTFDS,2.92 / 3.23 / 3.17,3.10,2 of 9 (4.49)
GFTHNSYGIS,VIYSDDRRTFYGDSVK,WRAAGTFDS,nd / nd / nd,nd,1 of 9 (4.02)
IFTRNSYGIS,VIYSDGRRTFYGCSVK,GRAAGTFDS,nd / nd / nd,nd,1 of 9 (4.19)
GFTLNSYGIS,VIYSDGRRTFYGDSVK,VRAAGPFDS,nd / nd / nd,nd,1 of 9 (2.34)
GFTLNSYGIS,VITSDTRRTFYGDSVK,GRAAGTFDS,nd / nd / nd,nd,2 of 9 (3.54)
GFTLNSYGIS,FIYSDGRRTFYGDSVK,GRAAGYFDC,4.70 / nd / nd,4.70,4 of 9 (4.58)
GFCLNSYGIS,VIYSWGRRTFYGDSVV,GRAAGTFDS,nd / nd / nd,nd,0 of 9
GFTLNSYIIS,VIYSDGRRTFYGTSVK,GRAAGTFDS,5.01 / nd / 3.60,4.30,4 of 9 (3.53)
GFWLNSYGIS,VIYSDGRRTFYGDQVK,GRAAGTFDS,nd / nd / nd,nd,0 of 9
GLTLNSYGIS,VIYSDGRRTFYGDYVK,GRAAVTFDS,nd / 3.92 / nd,3.92,0 of 9
GFTVNSYGIS,VIYSDGRRTHYGDSVK,GQAAGTFDS,1.75 / 1.46 / 1.84,1.68,3 of 9 (3.38)
GFTLNSYSMS,VIYSDGRRTPYGDSVK,GRAAGTFDS,nd / nd / nd,nd,2 of 9 (3.93)
GFTLNSDGIS,VAYSDGRRTFYGDSTK,GRAAGTFDS,nd / nd / nd,nd,0 of 9
GFTLCSYGIS,VIYSDGRRTFYGDSVK,GRAAGLFDS,nd / nd / 3.69,3.69,1 of 9 (2.61)
GFTLNSYGIS,VIYQDGRRPFYQDSVK,GRAAGTFDS,5.91 / nd / nd,5.91,6 of 9 (4.19)
LFTLNSCGIS,VIYSDLRRTFYGDSVK,GRAAGTFDS,nd / 2.79 / nd,2.79,1 of 9 (3.71)
GFTLNSYGQS,VQYSDGRRTFYGDSVK,MRAAGTFDS,nd / nd / nd,nd,0 of 9
GFTLNSYGIS,VIYSWHRRTFYGDSVK,GRAAGTFDK,nd / nd / nd,nd,1 of 9 (3.44)
GFKLNSYGSH,VIYSDGRRTFYGDSVK,GRAAGTFDS,nd / nd / nd,nd,7 of 9 (4.66)
GFTLNSYGIS,VIYSDGRRTFCGDSVK,GRAAWYFDS,3.54 / nd / 4.95,4.25,1 of 9 (2.85)
GFTHNSYGIS,VIYSDGRRVFYGDSVK,GRAAGTYDS,5.66 / nd / nd,5.66,1 of 9 (4.71)
GFTLNSYGIH,VIYSDGRRTFYGDSVK,GRAAGRFWS,1.27 / 1.36 / 0.86,1.16,2 of 9 (4.95)
GSTLNSYGIS,VWYSDGRRTFYGDSVK,GRAAMTFDS,nd / nd / nd,nd,1 of 9 (2.89)

The 5 strongest on average among those seen in every replicate, once more:

{"CDR-H1": "GFTLNSYGIH", "CDR-H2": "VIYSDGRRTFYGDSVK", "CDR-H3": "GRAAGRFWS", "log10 Kd (nM) by replicate": "1.27 / 1.36 / 0.86", "log10 Kd (nM), mean": "1.16", "empty controls": "2 of 9 (4.95)"}
{"CDR-H1": "NFTLNSYGIS", "CDR-H2": "VIYSDGRRTFYGDSVK", "CDR-H3": "GTAAGTTDS", "log10 Kd (nM) by replicate": "1.90 / 1.45 / 1.61", "log10 Kd (nM), mean": "1.66", "empty controls": "3 of 9 (3.78)"}
{"CDR-H1": "GFTVNSYGIS", "CDR-H2": "VIYSDGRRTHYGDSVK", "CDR-H3": "GQAAGTFDS", "log10 Kd (nM) by replicate": "1.75 / 1.46 / 1.84", "log10 Kd (nM), mean": "1.68", "empty controls": "3 of 9 (3.38)"}
{"CDR-H1": "GFSLNSYGIS", "CDR-H2": "VIYSDGRRTFYGSSCK", "CDR-H3": "GRAAGTFDS", "log10 Kd (nM) by replicate": "1.65 / 1.72 / 2.29", "log10 Kd (nM), mean": "1.89", "empty controls": "2 of 9 (2.79)"}
{"CDR-H1": "GFCLNSYGIS", "CDR-H2": "VIYSDGRRTFYGSSVY", "CDR-H3": "GRAAGTFDS", "log10 Kd (nM) by replicate": "2.92 / 3.23 / 3.17", "log10 Kd (nM), mean": "3.10", "empty controls": "2 of 9 (4.49)"}